## Yeast mating assay 1: variants of the scFv Ab-14

Target peptide (SARS-CoV-2 spike, HR2 region): PDVDLGDISGINAS

Each scFv is VH, a (GGGGS)3 linker, VL, as in the parent Ab-14, and differs from it in the CDRs of the heavy chain only.
VH: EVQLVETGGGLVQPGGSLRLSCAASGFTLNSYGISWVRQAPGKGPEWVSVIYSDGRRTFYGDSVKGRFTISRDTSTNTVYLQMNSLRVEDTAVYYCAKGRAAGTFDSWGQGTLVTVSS
VL: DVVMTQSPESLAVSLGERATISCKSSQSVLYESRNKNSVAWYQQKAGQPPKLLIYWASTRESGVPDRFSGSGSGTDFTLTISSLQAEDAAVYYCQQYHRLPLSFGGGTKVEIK

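The starting antibody came from a phage panning campaign against this peptide. Variants in AAYL49 differ from the parent at up to three CDR positions; double and triple changes were sampled at random. Affinity was read by AlphaSeq, a pooled yeast mating assay with surface-displayed partners. The frequency of each diploid, read from paired DNA barcodes, reflects how well the two displayed proteins bind. Read counts were normalised to the haploid input and turned into Kd by a linear fit to BCL2-family pairs of known affinity, for each replicate. There are three technical replicates.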

Changes read parent residue, position, new residue, counted from the first residue of the VH shown.
Numbers give log10(Kd / nM), so 0 is 1 nM and 3 is 1 µM. Smaller is tighter.
A mean of the replicates is given; it leaves out those without a signal.
An entry "ND" has no value in the source: the pair was not observed among the diploids in that replicate. This suggests poor binding but is not conclusive.
Three control strains display no target. For library AAYL49, 15% of the pairings with them gave a signal, with a median of 4.06 and one signal in twenty below 2.83, so weak values seen in few replicates may be background. Also given: how often the same scFv was detected with the empty control strains, with their mean in brackets.

| changes | log10 Kd, replicates | mean log10 Kd (nM) | control signals |
|---|---|---|---|
| G26H G55E V64H | ND / ND / ND | ND | 3 of 9 (4.38) |
| F27K L29W R57V | ND / ND / ND | ND | 0 of 9 |
| S31L V50F F105R | ND / ND / 5.12 | 5.12 | 0 of 9 |
| N30H D62C G103A | ND / ND / ND | ND | 1 of 9 (2.30) |
| I34R S35K G99R | ND / ND / ND | ND | 0 of 9 |
| G26W G103L T104D | ND / 1.73 / 2.44 | 2.09 | 0 of 9 |
| S31F R56C F59M | ND / 4.24 / ND | 4.24 | 3 of 9 (4.05) |
| K65A R100S | ND / ND / ND | ND | 0 of 9 |
| F27C G55H F59W | 4.17 / 5.11 / 4.09 | 4.46 | 3 of 9 (3.72) |
| N30W Y60P T104D | 3.97 / ND / ND | 3.97 | 4 of 9 (3.73) |
| S35I S63V G103Q | ND / ND / ND | ND | 1 of 9 (3.39) |
| T28L D54N F105C | ND / 3.94 / ND | 3.94 | 1 of 9 (3.59) |
| L29C I51M G99Q | ND / ND / ND | ND | 0 of 9 |
| G33P V50K D54A | ND / ND / 3.58 | 3.58 | 0 of 9 |
| N30Y I34G Y60S | ND / 3.41 / 3.30 | 3.36 | 2 of 9 (3.65) |
| G26Y T58H G61K | 3.16 / ND / ND | 3.16 | 0 of 9 |
| R57Q D62C A102L | ND / ND / ND | ND | 1 of 9 (3.03) |
| G26C S35Q F105W | 4.03 / 5.02 / ND | 4.53 | 4 of 9 (3.73) |
| V50Q D54T T58M | 3.78 / ND / ND | 3.78 | 3 of 9 (3.67) |
| Y32A G61V R100N | 1.31 / 1.76 / 1.56 | 1.54 | 0 of 9 |
| Y32C S63P T104Q | ND / ND / ND | ND | 1 of 9 (3.47) |
| N30M D54G F59M | ND / ND / ND | ND | 0 of 9 |
| R57Q F59G | 3.59 / 3.07 / 3.32 | 3.33 | 6 of 9 (4.69) |
| G33N R100Y G103I | 3.58 / ND / ND | 3.58 | 2 of 9 (3.14) |
| S35Y G99W G103L | ND / ND / ND | ND | 2 of 9 (4.31) |
| L29C S53K G103S | ND / 4.13 / ND | 4.13 | 1 of 9 (3.34) |
| F27I G55K T58Q | ND / 3.63 / ND | 3.63 | 1 of 9 (2.69) |
| F27N Y60R S107M | ND / ND / ND | ND | 1 of 9 (2.12) |
| T28C S53D D62M | 3.40 / ND / 4.32 | 3.86 | 2 of 9 (4.26) |
| S35Q T58V D106G | ND / ND / ND | ND | 0 of 9 |
| S31T R57L G99A | ND / ND / ND | ND | 1 of 9 (4.55) |
| Y32L S35A | ND / 3.15 / ND | 3.15 | 1 of 9 (3.77) |
| F27H | 1.65 / 1.61 / 1.74 | 1.67 | 1 of 9 (3.69) |
| N30I G99S S107F | ND / ND / ND | ND | 1 of 9 (4.55) |
| Y32S D62K A101H | ND / ND / ND | ND | 0 of 9 |
| V50H S53V A101N | ND / ND / ND | ND | 0 of 9 |

Parent in this assay: reference entry 0.65, copy in this library 4.11 (one replicate of three).

Data: MIT Lincoln Laboratory AlphaSeq set, Engelhart et al. 2022, doi:10.1038/s41597-022-01779-4, as distributed in FLAb.